Reference: PubChem BioAssay AID1379 (National Center for Advancing Translational Sciences (NCATS), 2008)
The entries are a selection whose mix differs from that of the whole data set. Some salts or complexes appear as unconnected parts, following the source record. Calls of active or inactive are those of the source. Calls follow the shape of the dose curve; as a rule, active = well fitted inhibition curve with a large enough effect; inconclusive = small, poorly fitted or top-dose-only effect; inactive = flat fitted curve, though single readings scatter.

What follows are molecules tested against Luciferin 4-monooxygenase (Photuris pensylvanica) (UniProt Q27757) (assay: Counterscreen for Luciferase (Kinase-Glo TM) Inhibition). Settings: ATP luminescence, 8 min; at 38.3 µM (top of the series) unless noted.
Procedure: NCGC Assay Overview: NIH Molecular Libraries Screening Centers Network [MLSCN] NIH Chemical Genomics Center [NCGC] MLSCN Grant: None Luciferase (Kinase-Glo, Promega Corporation) was assayed for its ability to generate light using ATP and luciferin as substrates. The ATP concentration in the assay (10 uM) was within the linear range of enzyme activity for the assay conditions used.
NCGC Assay Protocol Summary: Four uL of substrate mix (final concentration, 50 mM imidazole pH 7.2, 50 mM KCl, 7 mM MgCl2, 10 uM ATP, 0.01% Tween 20, 0.05% BSA) was dispensed into white 1536 well plates. Twenty-three nL of compound was delivered by a pin tool and 2 uL of luciferase detection mix (Kinase-Glo, Promega)) was added. Following 8-minute incubation at ambient temperature, luminescence was measured by a ViewLux (Perkin Elmer) at 5 seconds exposure/plate.
% is scaled to controls: 0 for no effect and ±100 for the full control effect.
Also: nearly all actives have a fitted effect of over 60% in size.

SMILES | activity change, negative = inhibition
CN(C)CCOC(=O)C(O)(c1ccccc1)C1CCCCC1 (stereo not drawn) | inactive: 3.49%
Cc1ccccc1NP(C)(=O)Nc1ccccc1C | inactive: -1.8%
CCN(CCCl)Cc1ccccc1C | inactive: -0.567%
NNC(NN)NN.n1nc(-c2nn[nH]n2)n[nH]1 | inactive: -2.63% [at 7.66 µM]
CP(=O)(Nc1ccc2c(c1)OCCO2)Oc1ccccc1 (stereo not drawn) | inactive: 4.43%
CCOP(C)(=S)SCC(=O)NC(C)(CC)C(=O)O (stereo not drawn) | inactive: 3.05%
O=C(OCCN1CCN(CCOCc2ccccc2)CC1)C(O)(c1ccccc1)c1ccccc1 | inactive: -0.348%
CP(=O)(Nc1ccccc1F)Oc1ccccc1 (stereo not drawn) | inactive: -0.858%
CC(C)c1ccc(OP(C)(=O)Nc2ccc(SC(F)(F)F)cc2)cc1 (stereo not drawn) | inactive: -3.9%
CP(=O)(Nc1ccccc1)Oc1ccc(F)cc1 (stereo not drawn) | inactive: -1.02%
CCN(CC)CCCOC(=O)C(O)(c1ccccc1)C1CCCCC1 (stereo not drawn) | inactive: 2.58%
CCOC(=O)c1ccc(NP(C)(=O)Oc2ccc(F)cc2)cc1 (stereo not drawn) | inactive: 5.73%
COc1ccc(OP(C)(=O)Nc2ccc(SC(F)(F)F)cc2)cc1 (stereo not drawn) | inactive: 2.69%
CP(=O)(Nc1ccc(Cl)cc1Cl)Oc1ccccc1 (stereo not drawn) | inactive: -1.59%
CP(=O)(OCCOc1ccccc1)OCCOc1ccccc1 | inactive: 1.43%
Cc1nc2ccc3ccccc3c2o1.O=[N+]([O-])c1cc([N+](=O)[O-])c(O)c([N+](=O)[O-])c1 | inactive: 2.02%
COc1ccc(OP(C)(=O)Nc2ccccc2Br)cc1 (stereo not drawn) | inactive: 0.888%
Cc1cc(C)cc(OP(C)(=O)Nc2cccc(C(F)(F)F)c2)c1 (stereo not drawn) | inactive: -1.34%
COc1ccccc1OP(C)(=O)Nc1ccc(C)cc1C (stereo not drawn) | inactive: -7.35%
CP(=O)(Nc1ccccn1)Oc1ccccc1 (stereo not drawn) | inactive: 0.226%
CCc1ccc(OP(C)(=O)O)cc1 | inactive: -2.17%
Cc1c(NP(C)(=O)Oc2ccc(C(C)C)cc2)c(=O)n(-c2ccccc2)n1C (stereo not drawn) | inactive: 0.586%
O=[N+]([O-])c1cc([N+](=O)[O-])c(Nc2ccccn2)c([N+](=O)[O-])c1 | inactive: -4.16%
COc1ccc(OP(C)(=O)Nc2ccccn2)cc1 (stereo not drawn) | inactive: -0.577%
CN(C)CCOC(=O)C(O)(c1ccccc1)C1CCCC1 (stereo not drawn) | inactive: -3.49%

SMILES | activity change, negative = inhibition
CN(C)C(=O)c1c([N+](=O)[O-])cc([N+](=O)[O-])cc1[N+](=O)[O-] | inactive: 1.03%
CC(C)(C)c1ccc(OP(C)(=O)O)cc1 | inactive: -2.54%
CP(=O)(Nc1ccc(Cl)cc1)Oc1ccc(F)cc1 (stereo not drawn) | inactive: -9.27%
OCCSCCO | inactive: -0.102%
COc1ccccc1OP(C)(=O)Nc1c(C)n(C)n(-c2ccccc2)c1=O (stereo not drawn) | inactive: -0.196%
CCc1ccc(OP(C)(=O)Nc2cccnc2)cc1 (stereo not drawn) | inactive: -0.254%
CP(=O)(Oc1ccccc1)N1CCOC1=O (stereo not drawn) | inactive: -3.1%
COc1ccc(OP(C)(=O)Nc2ccc(Br)cc2)cc1 (stereo not drawn) | inactive: -1.81%
CCN(CC)CC(O)COC(=O)C(O)(c1ccccc1)C1CCCCC1 (stereo not drawn) | inactive: -3.04%
N#[O+].[C-]#N.[C-]#N.[C-]#N.[C-]#N.[C-]#N.[Fe+2].[Na+].[Na+] | inactive: 2.26%
C/C1=C2N=C(/C=C3N=C(/C(C)=C4\[N-][C@@](C)([C@H]5N=C1[C@@](C)(CCC(=O)NC[C@H](C)OP(=O)([O-])O[C@@H]1[C@H](O)[C@H](n6cnc7cc(C)c(C)cc76)O[C@@H]1CO)[C@@H]5CC(N)=O)[C@](C)(CC(N)=O)[C@H]4CCC(N)=O)[C@@](C)(CC(N)=O)[C@@H]\3CCC(N)=O)C(C)(C)[C@@H]/2CCC(N)=O.[C-]#N.[Co+3] | inactive: -7.65% [at 17.1 µM]
CCOC(=O)c1ccc(NP(C)(=O)Oc2ccc(Cl)cc2)cc1 (stereo not drawn) | inactive: 0.1%
CP(=O)(OC12CC3CC(CC(C3)C1)C2)OC12CC3CC(CC(C3)C1)C2 | inactive: -4.86%
CP(=O)(Nc1ccccc1Br)Oc1ccccc1 (stereo not drawn) | inactive: -0.819%
COc1ccccc1OP(C)(=O)Nc1ccccc1 (stereo not drawn) | inactive: 8.59%
CP(=S)(Nn1cnnc1)Oc1ccccc1 (stereo not drawn) | inactive: 2.58%
N1=C(c2nnc(-c3nn[nH]n3)nn2)NNN1 | inactive: -9.38% [at 7.66 µM]
CP(=O)(Nc1ccccn1)Oc1ccc(Cl)cc1 (stereo not drawn) | inactive: -4.91%
CCOC(=O)c1ccc(NP(C)(=O)Oc2ccc(OC)cc2)cc1 (stereo not drawn) | inactive: 2%
CCOP(C)(=S)SCC(=O)NC(C)C(=O)O (stereo not drawn) | inactive: 5.4%
Cc1cc(C)cc(OP(C)(=O)Nc2ccc(SC(F)(F)F)cc2)c1 (stereo not drawn) | inactive: 1.14%
CP(=O)(NC(=O)Nc1ccccc1)Oc1ccccc1 (stereo not drawn) | inactive: -2.61%
[Au].[Au].c1ccc([PH+](c2ccccc2)c2ccccc2)cc1.c1ccc([PH+](c2ccccc2)c2ccccc2)cc1.n1n[nH]c(-c2nnn[nH]2)n1 | inactive: -6.29% [at 7.66 µM]
CP(=O)(Oc1ccccc1)OC(c1ccccc1)C(F)(F)F (stereo not drawn) | inactive: -1.91%
Cc1cccc(C)c1OP(C)(=O)Nc1ccc(SC(F)(F)F)cc1 (stereo not drawn) | inactive: 1.68%

SMILES | activity change, negative = inhibition
CCN(CC)CCCOC(=O)C(O)(c1ccccc1)c1ccccc1 | inactive: -5.23%
Cc1cc(C)cc(OP(C)(N)=O)c1 (stereo not drawn) | inactive: -0.838%
COc1ccc(OP(C)(=O)Nc2cccc(F)c2)cc1 (stereo not drawn) | inactive: 2.39%
COc1ccccc1OP(C)(=O)Nc1cc(Cl)ccc1C (stereo not drawn) | inactive: 2.33%
Cc1ccc(NP(C)(=O)Oc2ccccc2)c(C)c1 (stereo not drawn) | inactive: -3.86%
COc1ccccc1OP(C)(=O)Nc1ccc(C)cc1 (stereo not drawn) | inactive: -0.954%
CCOC(=O)c1ccc(NP(C)(=O)Oc2ccccc2)cc1 (stereo not drawn) | inactive: 2.74%
O=[N+]([O-])c1ccc2c(c1)C=Nc1ccccc1O2 | inactive: -1.04%
Cc1cccc(C)c1OP(C)(N)=O (stereo not drawn) | inactive: 1.07%
CC(C)(C)c1ccc(OP(C)(=O)Nc2ccc(SC(F)(F)F)cc2)cc1 (stereo not drawn) | inactive: -3.31%
CC1=NCCc2c1[nH]c1ccccc21.O=[N+]([O-])c1cc([N+](=O)[O-])c(O)c([N+](=O)[O-])c1 | inactive: 1.91%
O=[N+]([O-])OCC(CO[N+](=O)[O-])(CO[N+](=O)[O-])CO[N+](=O)[O-] | inactive: -2.72% [at 39.9 µM]
Cc1ccc(C)c(NP(C)(=O)Oc2ccccc2)c1 (stereo not drawn) | inactive: 2.41%
Cc1cc(C)cc(OP(C)(=O)Nc2ccccn2)c1 (stereo not drawn) | inactive: 0.488%
CP(=O)(Nc1cccc(Br)c1)Oc1ccccc1 (stereo not drawn) | inactive: 0.0036%
CCOC(=O)c1ccc(NP(C)(=O)Oc2cc(C)cc(C)c2)cc1 (stereo not drawn) | inactive: -0.873%
Cc1cc(C)cc(OP(C)(=O)Nc2ccc(C)cc2C)c1 (stereo not drawn) | inactive: -2.16%
Cc1nc2ccc3ccccc3c2s1.O=[N+]([O-])c1cc([N+](=O)[O-])c(O)c([N+](=O)[O-])c1 | inactive: -3.19%
O=[N+]([O-])c1cc([N+](=O)[O-])c(-n2nnc3ccccc32)c([N+](=O)[O-])c1 | inactive: 9.42%
CCCOc1ccc(NP(C)(=O)Oc2ccc(Cl)cc2)cc1 (stereo not drawn) | inactive: -0.409%
CP(=O)(Nc1ccc(SC(F)(F)F)cc1)Oc1ccccc1 (stereo not drawn) | inactive: 3.91%
COc1ccccc1OP(C)(=O)Nc1c(C)cccc1C (stereo not drawn) | inactive: -0.143%
CN1CCCCC1COC(=O)C1(O)c2ccccc2CCc2ccccc21 (stereo not drawn) | inactive: -3.96%
